Protein sequences, listed by entry. Tags and fused reporters are not part of them. Residues count along the entry.
UniProt Q9Y5Y6, 615-854 limits assumed: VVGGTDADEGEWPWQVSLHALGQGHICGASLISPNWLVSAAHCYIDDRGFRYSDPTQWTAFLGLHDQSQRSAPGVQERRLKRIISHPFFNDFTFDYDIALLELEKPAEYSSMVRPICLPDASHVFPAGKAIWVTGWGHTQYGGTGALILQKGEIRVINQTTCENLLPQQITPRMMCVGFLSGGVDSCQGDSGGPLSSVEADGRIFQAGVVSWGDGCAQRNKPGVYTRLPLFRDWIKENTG
UniProt P05981, 45-417 limits assumed: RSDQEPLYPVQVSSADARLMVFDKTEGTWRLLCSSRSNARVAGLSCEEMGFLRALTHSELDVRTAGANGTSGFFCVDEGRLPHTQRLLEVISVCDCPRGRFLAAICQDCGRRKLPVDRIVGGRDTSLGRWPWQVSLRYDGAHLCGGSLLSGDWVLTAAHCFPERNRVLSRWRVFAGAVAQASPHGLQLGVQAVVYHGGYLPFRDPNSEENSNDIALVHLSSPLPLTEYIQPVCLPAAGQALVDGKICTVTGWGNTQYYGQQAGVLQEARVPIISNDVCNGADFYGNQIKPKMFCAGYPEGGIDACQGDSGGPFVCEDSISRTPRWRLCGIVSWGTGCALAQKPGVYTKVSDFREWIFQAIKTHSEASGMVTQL

According to patent publication US20130022611A1, “METHODS AND COMPOSITIONS FOR MODULATING HEPSIN ACTIVATION OF UROKINASE-TYPE PLASMINOGEN ACTIVATOR” (Genentech, Inc., priority 2006, published 2013):

Experiments:
[1] = test system: LnCaP-34 cells (hepsin-overexpressing); assay: Pro-uPA activation by LnCaP-34 cells (two-stage enzymatic assay); conditions: LnCaP-34, 10 μM HI-10331, 100 nM pro-uPA, 37° C.; mean of two experiments
Experimental: (§1) Confluent LnCaP-34 and LnCaP-17 cells were washed with HBSA-Glucose buffer (20 mM Hepes pH 7.5, 150 mM NaCl, 5 mM CaCl2, 0.05 mg/ml BSA, 5 mM glucose) and 0.8 ml of 100 nM pro-uPA in pre-warmed HBSA-Glucose buffer was added to the cell layers. The inhibitors KD1 or HI-10331 were added to give final concentrations of 1 μM and 10 μM, respectively. The culture plates were kept at 37° C. and 50 μl samples were withdrawn at different time points, supplemented with 0.2 ml of […] S2444 in Hepes buffer and the increase in absorbance at 405 nm measured on a kinetic microplate reader. Cell numbers were determined at the end of the experiments. The concentration of formed uPA in each sample was calculated from a standard curve of enzymatically converted pro-uPA and normalized to 10^6 cells. After subtracting the background levels of uPA formed in the absence of cell layer, the linear rates of uPA formation/10^6 cells were determined.

LnCaP-17 cells = assay: Pro-uPA activation by LnCaP-17 cells (two-stage enzymatic assay)
Experimental: as §1

matriptase = matriptase (Homo sapiens, UniProt Q9Y5Y6); assay: Enzymatic assay of matriptase with chromogenic substrate S2765; conditions: read-out: Ki ± SD; 0.5 nM matriptase, S2765 at Km; Ki=IC50/(1+[S]/Km)
Experimental: (§2) The reversible active site inhibitor HI-10331 (Genentech, Inc.) (having the molecule structure depicted in FIG. 10, and disclosed in U.S. Pat. No. 6,472,393) or HAI-2 were incubated with 0.5 nM hepsin, 0.5 nM matriptase and 10 nM uPA for 30 min in Hepes buffer (20 mM Hepes, pH 7.5, 150 mM NaCl, 5 mM CaCl2, 0.01% Triton X-100) at room temperature. The chromogenic substrates S2366 (for hepsin), S2765 (for matriptase) and S2444 (for uPA) were added at a concentration corresponding to their respective Km values, which were determined in separate experiments. After substrate addition, the linear rates of the increase in absorbance at 405 nm was measured on a kinetic microplate reader (Molecular Devices, Sunnyvale, Calif.).
(§3) For HI-10331, the inhibitor concentration that gave a 50% inhibition of the enzymatic activity (IC50) was determined by fitting the data to a four-parameter equation (Kaleidagraph version 3.6, Synergy Software, Reading, Pa.). The Ki values were calculated according to the relationship Ki=IC50/(1+[S]/Km) (23) using the experimentally determined IC50 and Km values for each enzyme-substrate pair. For HAI-2, the apparent Ki values (Ki^*) were determined by fitting the data to the equation for tight binding inhibition (24,25).

hepsin = hepsin (Homo sapiens, UniProt P05981); assay: Enzymatic assay of hepsin with chromogenic substrate S2366
Experimental: as §2, §3

uPA = uPA (Homo sapiens, UniProt P00749); assay: Enzymatic assay of uPA with chromogenic substrate S2444
Experimental: as §2, §3

Ki (matriptase): > 10 µM | Potency for hepsin relative to matriptase (hepsin; hepsin vs matriptase): more than 200 fold | Ki (hepsin; read-out: Ki ± SD, 0.5 nM hepsin, S2366 at Km, Ki=IC50/(1+[S]/Km)): 0.0416 µM | Interference with uPA activity (uPA): did not interfere | Ki (uPA; read-out: Ki ± SD, 10 nM uPA, S2444 at Km, Ki=IC50/(1+[S]/Km)): > 10 µM
Structure (SMILES): CCCS(=O)(=O)NC[C@H](Nc1ccc(C(=N)N)cc1)c1cc(OCC)c(OCc2ccccc2)cc1NS(C)(=O)=O
Rate of pro-uPA activation per 10^6 cells [1]: 0.4 (0.4, 0.3)^a nM uPA hr^−1 | Rate of pro-uPA activation per 10^6 cells (LnCaP-17 cells; LnCaP-17, 10 μM HI-10331, 100 nM pro-uPA, 37° C., mean of two experiments): 0.7 (0.8, 0.6)^a nM uPA hr^−1 | Rate of pro-uPA cleavage remaining, of the control rate (LnCaP-17 cells; LnCaP-17, in the presence of HI-10331): about 30%

Marks after values point to notes of the source that are not given here.
